Reference: patent US10550108B2, “Poly(ADP-ribose) polymerase 1 inhibitors structurally unrelated to NAD” (Institute for Cancer Research, priority 2014, dated 2020)

The chains behind the UniProt entries cited, without tags or fusion partners.
UniProt P09874, whole entry: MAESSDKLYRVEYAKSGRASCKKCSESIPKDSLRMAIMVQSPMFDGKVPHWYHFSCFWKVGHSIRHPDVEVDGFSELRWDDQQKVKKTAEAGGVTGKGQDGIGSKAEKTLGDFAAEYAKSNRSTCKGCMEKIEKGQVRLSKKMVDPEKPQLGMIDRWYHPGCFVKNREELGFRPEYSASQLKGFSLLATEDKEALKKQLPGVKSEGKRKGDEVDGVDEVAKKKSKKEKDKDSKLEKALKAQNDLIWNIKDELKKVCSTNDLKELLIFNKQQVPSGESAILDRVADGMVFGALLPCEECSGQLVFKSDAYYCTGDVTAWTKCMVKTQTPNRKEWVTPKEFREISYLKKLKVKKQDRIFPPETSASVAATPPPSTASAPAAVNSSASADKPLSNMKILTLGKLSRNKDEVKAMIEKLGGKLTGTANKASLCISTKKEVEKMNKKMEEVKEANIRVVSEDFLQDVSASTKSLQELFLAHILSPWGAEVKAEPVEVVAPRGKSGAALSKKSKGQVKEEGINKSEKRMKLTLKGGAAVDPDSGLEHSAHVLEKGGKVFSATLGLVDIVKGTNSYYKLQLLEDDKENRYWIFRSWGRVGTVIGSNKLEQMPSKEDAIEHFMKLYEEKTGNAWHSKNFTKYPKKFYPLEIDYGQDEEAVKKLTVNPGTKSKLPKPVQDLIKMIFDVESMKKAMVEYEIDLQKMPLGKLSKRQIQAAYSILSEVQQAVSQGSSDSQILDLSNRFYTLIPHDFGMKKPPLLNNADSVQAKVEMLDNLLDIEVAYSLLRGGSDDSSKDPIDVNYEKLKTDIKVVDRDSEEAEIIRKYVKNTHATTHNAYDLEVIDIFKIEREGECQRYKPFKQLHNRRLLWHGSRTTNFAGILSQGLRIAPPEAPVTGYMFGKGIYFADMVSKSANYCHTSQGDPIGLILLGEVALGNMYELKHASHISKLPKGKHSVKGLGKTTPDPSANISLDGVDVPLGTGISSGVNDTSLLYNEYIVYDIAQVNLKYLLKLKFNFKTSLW

How the values were obtained:
PARP-1 [1] = target: T1, PARP-1 (Homo sapiens, UniProt P09874); assay: PARP-1 activation screening assay, 384-well ELISA plate coated with histone H4
PARP-1 [2] = target: T1, PARP-1; conditions: BT474 and PC3 cell cultures, Western blot with anti-pADPr antibody

Value (PARP-1 [1]): 0.05 | pADPr amounts in cells (PARP-1 inhibition) (PARP-1 [2]): diminished pADPr amounts considerably
Substance: 4-Amino-1,8-naphthalimide [Formula 4ANI]
